Data from ChEMBL document CHEMBL1134508, “3-(4-aroyl-1H-pyrrol-2-yl)-N-hydroxy-2-propenamides, a new class of synthetic histone deacetylase inhibitors” (J Med Chem, 2001).

What was measured:
Histone deacetylase HD2 [1] = target: T1, Histone deacetylase HD2 (Zea mays, UniProt Q94F81); assay: Experimental anti-HDAC (anti-histone deacetylase) activity of the compound
T1 sequence (Q94F81 whole entry): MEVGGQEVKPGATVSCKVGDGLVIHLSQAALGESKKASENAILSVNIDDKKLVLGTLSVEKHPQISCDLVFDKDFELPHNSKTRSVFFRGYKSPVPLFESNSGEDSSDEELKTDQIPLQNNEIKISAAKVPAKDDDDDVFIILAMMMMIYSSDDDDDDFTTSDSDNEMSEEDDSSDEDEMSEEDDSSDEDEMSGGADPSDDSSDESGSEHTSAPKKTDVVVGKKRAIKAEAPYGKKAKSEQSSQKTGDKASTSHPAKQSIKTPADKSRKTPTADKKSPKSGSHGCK

Histone deacetylase HD2 [2] = target: T1, Histone deacetylase HD2; assay: Inhibitory concentration against histone deacetylase activity

Molecule CC(/C=C/C(=O)NO)=C\[C@@H](C)C(=O)c1ccc(N(C)C)cc1 [TRICHOSTATIN] has a Ki (Histone deacetylase HD2 [1]) of 4.37 nM and an IC50 (Histone deacetylase HD2 [2]) of 7.2 nM.
